Measured values from US20260384452A1, “TRIAZOLO RING COMPOUND METHANESULFONATE CRYSTAL FORM, PREPARATION METHOD THEREFOR AND USE THEREOF” (published 2026).

Experiments:
[1] = 3-month long-term stability of crystal form G under high humidity RH 92.5% condition; details: 3 months
Text: The crystal form G of the compound methanesulfonate of formula (I) was subjected to 3-month long-term stability investigation under high humidity RH 92.5% condition.

[2] = Stability of Crystal Form G: 1-month stability under illumination (5000 lux), high temperature of 60 °C, and high humidity RH 92.5%
Description: A sample, i.e., the crystal form G of the compound methanesulfonate of formula (I), was subjected to 1-month stability investigation under conditions of illumination (5000 lux), high temperature of 60 °C, and high humidity RH 92.5%.

[3] = 1 month, high temperature 60 °C, illumination 5000 lux, high humidity RH 92.5%

CN1C(=O)COc2c1cnc1ccc(Sc3nnc4c(F)cc(-c5cnn(C)c5)cn34)cc21
polymorphic transformation and dissociation [1]: no polymorphic transformation and dissociation occurred
stability of crystal form [1]: very stable
chemical degradation [2, 3]: substantially no chemical degradation
stability of crystal form [2, 3]: very stable
Purity ([2]; High humidity (RH 92.5%), 0 days): 99.5%
Purity ([2]; High humidity (RH 92.5%), 5 days): 99.5%
Purity ([2]; High humidity (RH 92.5%), 10 days): 99.5%
Purity ([2]; High humidity (RH 92.5%), 30 days): 99.4%
Purity ([2]; High temperature (60 °C), 0 days): 99.5%
Purity ([2]; High temperature (60 °C), 5 days): 99.5%
Purity ([2]; High temperature (60 °C), 10 days): 99.4%
Purity ([2]; High temperature (60 °C), 30 days): 99.4%
Purity ([2]; Illumination (5000 lux), 0 days): 99.5%
Purity ([2]; Illumination (5000 lux), 5 days): 99.4%
Purity ([2]; Illumination (5000 lux), 10 days): 99.4%
Purity ([2]; Illumination (5000 lux), 30 days): 99.4%
